In ChEMBL document CHEMBL1123639, “Nitrogen-bridged conformationally constrained etorphine analogues. Synthesis and biological evaluation” (1987):

Species on record: Rattus norvegicus
Experiment: The compound was tested for relative analgesic potency with respect to the potency of morphine

CN1CC[C@]23c4c5ccc(O)c4O[C@H]2[C@@H](O)C=C[C@H]3[C@H]1C5
Relative potency: 1
